In article PMC3758425 (Biochemistry, 2013):

Biological target: Human calmodulin (CaM) (human) (UniProt P0DP23)
Test: NMR titration

Kd: 70 µM
Substance: N-terminally acetylated, full-length α-synuclein (from UniProt P37840 1-140) (natural protein)
